# Target: isolated recombinant JAK2 kinase domain (Homo sapiens (Human), UniProt O60674)
# Sequences of proteins named here, by UniProt entry; tags and fusion partners are left off. Residues count along the entry.
# UniProt O60674, 849-1124: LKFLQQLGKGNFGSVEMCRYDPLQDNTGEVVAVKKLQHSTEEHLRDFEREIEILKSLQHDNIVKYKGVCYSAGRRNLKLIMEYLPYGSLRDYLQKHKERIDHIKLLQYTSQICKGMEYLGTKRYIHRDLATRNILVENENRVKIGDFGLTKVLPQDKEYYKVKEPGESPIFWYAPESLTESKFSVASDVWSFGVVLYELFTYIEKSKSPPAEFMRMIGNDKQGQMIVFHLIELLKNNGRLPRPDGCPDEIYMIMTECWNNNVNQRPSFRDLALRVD
# Experiment: JAK2 enzyme assay (Caliper LabChip, peptide phosphorylation)
# Assay type: biochemical
# Conditions: 25 μM ATP
row,Ki,SMILES
1,0.26 nM,"CN1CCC2CN(C(=O)Cn3cc(NC(=O)c4c(N)nn5cccnc45)c(-c4cc(Cl)ccc4OC(F)F)n3)CCC21 (stereo not shown) [Example 56, 2-amino-N-[3-[5-chloro-2-(difluoromethoxy)phenyl]-1-[2-(1-methyl-3,3a,4,6,7,7a-hexahydro-2H-pyrrolo[3,2-c]pyridin-5-yl)-2-oxo-ethyl]pyrazol-4-yl]pyrazolo[1,5-a]pyrimidine-3-carboxamide]"
2,1.78 nM,"NC1CCN(C(=O)Cn2cc(NC(=O)c3cnn4cccnc34)c(-c3cc(Cl)ccc3OC(F)F)n2)CC1 [Example 66, N-[1-[2-(4-amino-1-piperidyl)-2-oxo-ethyl]-3-[5-chloro-2-(difluoromethoxy)phenyl]pyrazol-4-yl]pyrazolo[1,5-a]pyrimidine-3-carboxamide]"
3,1.87 nM,"CN(C)C1CCN(C(=O)Cn2cc(NC(=O)c3cnn4cccnc34)c(-c3cc(Cl)ccc3OC(F)F)n2)CC1 [Example 67, N-[3-[5-chloro-2-(difluoromethoxy)phenyl]-1-[2-[4-(dimethylamino)-1-piperidyl]-2-oxo-ethyl]pyrazol-4-yl]pyrazolo[1,5-a]pyrimidine-3-carboxamide]"
4,3.24 nM,"NC[C@@H]1CCCN1C(=O)Cn1cc(NC(=O)c2cnn3cccnc23)c(-c2cc(Cl)ccc2OC(F)F)n1 [Example 81, N-[1-[2-[(2S)-2-(aminomethyl)pyrrolidin-1-yl]-2-oxo-ethyl]-3-[5-chloro-2-(difluoromethoxy)phenyl]pyrazol-4-yl]pyrazolo[1,5-a]pyrimidine-3-carboxamide]"
5,2.58 nM,"O=C(Nc1cn(CC(=O)N2CCC(NCCc3ccc(C(F)(F)F)cc3)CC2)nc1-c1cc(Cl)ccc1OC(F)F)c1cnn2cccnc12 [Example 93, N-[3-[5-chloro-2-(difluoromethoxy)phenyl]-1-[2-oxo-2-[4-[2-[4-(trifluoromethyl)phenyl]ethylamino]-1-piperidyl]ethyl]pyrazol-4-yl]pyrazolo[1,5-a]pyrimidine-3-carboxamide]"
6,0.26 nM,"CN(C)C1CN(C(=O)Cn2cc(NC(=O)c3c(N)nn4cccnc34)c(-c3cc(Cl)ccc3OC(F)F)n2)C1 [Example 138, 2-amino-N-[3-[5-chloro-2-(difluoromethoxy)phenyl]-1-[2-[3-(dimethylamino)azetidin-1-yl]-2-oxo-ethyl]pyrazol-4-yl]pyrazolo[1,5-a]pyrimidine-3-carboxamide]"
7,0.14 nM,"Nc1nn2cccnc2c1C(=O)Nc1cn(C2CCN(CCCC(=O)N3CCOCC3)CC2)nc1-c1cc(Cl)ccc1OC(F)F [Example 147, 2-amino-N-[3-[5-chloro-2-(difluoromethoxy)phenyl]-1-[1-(4-morpholino-4-oxo-butyl)-4-piperidyl]pyrazol-4-yl]pyrazolo[1,5-a]pyrimidine-3-carboxamide]"
8,0.84 nM,"CN(C)C1CCN(c2nc(-c3cc(Cl)ccc3OC(F)F)c(NC(=O)c3cnn4cccnc34)s2)CC1 [Example 188, Pyrazolo[1,5-a]pyrimidine-3-carboxylic acid [4-(5-chloro-2-difluoromethoxy-phenyl)-2-(4-dimethylamino-piperidin-1-yl)-thiazol-5-yl]-amide]"
9,1.26 nM,"CN1CCC2(CC1)CN(C(=O)Cn1cc(NC(=O)c3c(N)nn4cccnc34)c(-c3cc(Cl)ccc3OC(F)F)n1)CCO2 [Example 215, 2-amino-N-[3-[5-chloro-2-(difluoromethoxy)phenyl]-1-[2-(9-methyl-1-oxa-4,9-diazaspiro[5.5]undecan-4-yl)-2-oxo-ethyl]pyrazol-4-yl]pyrazolo[1,5-a]pyrimidine-3-carboxamide]"
10,3.08 nM,"CN1CC2(CCN(C(=O)Cn3cc(NC(=O)c4cnn5cccnc45)c(-c4cc(Cl)ccc4OC(F)F)n3)CC2)C1 [Example 218, N-[3-[5-chloro-2-(difluoromethoxy)phenyl]-1-[2-(2-methyl-2,7-diazaspiro[3.5]nonan-7-yl)-2-oxo-ethyl]pyrazol-4-yl]pyrazolo[1,5-a]pyrimidine-3-carboxamide]"
11,1.68 nM,"CN1CC2(CCN(C(=O)Cn3cc(NC(=O)c4cnn5cccnc45)c(-c4cc(Cl)ccc4OC(F)F)n3)C2)C1 [Example 221, N-[3-[5-chloro-2-(difluoromethoxy)phenyl]-1-[2-(2-methyl-2,6-diazaspiro[3.4]octan-6-yl)-2-oxo-ethyl]pyrazol-4-yl]pyrazolo[1,5-a]pyrimidine-3-carboxamide]"
12,0.84 nM,"COCCN1CCN(C(=O)Cn2cc(NC(=O)c3cnn4cccnc34)c(-c3cc(Cl)ccc3OC(F)F)n2)CC1 [Example 229, N-[3-[5-chloro-2-(difluoromethoxy)phenyl]-1-[2-[4-(2-methoxyethyl)piperazin-1-yl]-2-oxo-ethyl]pyrazol-4-yl]pyrazolo[1,5-a]pyrimidine-3-carboxamide]"
13,0.15 nM,"CN1C[C@H]2C[C@@H]1CN2C(=O)Cn1cc(NC(=O)c2c(N)nn3cccnc23)c(-c2cc(Cl)ccc2OC(F)F)n1 [Example 252, 2-amino-N-[3-[5-chloro-2-(difluoromethoxy)phenyl]-1-[2-[(1R,4R)-5-methyl-2,5-diazabicyclo[2.2.1]heptan-2-yl]-2-oxo-ethyl]pyrazol-4-yl]pyrazolo[1,5-a]pyrimidine-3-carboxamide]"
14,2.03 nM,"O=C(Nc1sc(CN2CCCCC2)nc1-c1cc(Cl)ccc1OC(F)F)c1cnn2cccnc12 [Example 263, N-[4-[5-chloro-2-(difluoromethoxy)phenyl]-2-(1-piperidylmethyl)thiazol-5-yl]pyrazolo[1,5-a]pyrimidine-3-carboxamide]"
15,0.77 nM,"COC(=O)CCN1CCN(C(=O)Cn2cc(NC(=O)c3cnn4cccnc34)c(-c3cc(Cl)ccc3OC(F)F)n2)CC1 [Example 331, methyl 3-[4-(2-[3-[5-chloro-2-(difluoromethoxy)phenyl]-4-[pyrazolo[1,5-a]pyrimidine-3-amido]-1H-pyrazol-1-yl]acetyl)piperazin-1-yl]propanoate]"
16,0.36 nM,"O=C(O)CCN1CCN(C(=O)Cn2cc(NC(=O)c3cnn4cccnc34)c(-c3cc(Cl)ccc3OC(F)F)n2)CC1 [Example 353, 3-[4-(2-[3-[5-chloro-2-(difluoromethoxy)phenyl]-4-[pyrazolo[1,5-a]pyrimidine-3-amido]-1H-pyrazol-1-yl]acetyl)piperazin-1-yl]propanoic acid]"
17,1.7 nM,"O=C(Nc1cn([C@@H]2CNCC[C@H]2O)nc1-c1cc(Cl)ccc1OC(F)F)c1cnn2cccnc12 [Example 360, N-[3-[5-chloro-2-(difluoromethoxy)phenyl]-1-[(3R,4R)-4-hydroxypiperidin-3-yl]-1H-pyrazol-4-yl]pyrazolo[1,5-a]pyrimidine-3-carboxamide]"
18,0.96 nM,"CN1CCN(C/C=C/Cn2cc(NC(=O)c3cnn4cccnc34)c(-c3cc(Cl)ccc3OC(F)F)n2)CC1 [Example 395, N-[3-[5-chloro-2-(difluoromethoxy)phenyl]-1-[(2E)-4-(4-methylpiperazin-1-yl)but-2-en-1-yl]-1H-pyrazol-4-yl]pyrazolo[1,5-a]pyrimidine-3-carboxamide]"
19,1.29 nM,"CSCCOC(=O)CNCCn1cc(NC(=O)c2cnn3cccnc23)c(-c2cc(Cl)ccc2OC(F)F)n1 [Example 396, 2-(methylthio)ethyl 2-(2-(3-(5-chloro-2-(difluoromethoxy)phenyl)-4-(pyrazolo[1,5-a]pyrimidine-3-carboxamido)-1H-pyrazol-1-yl)ethylamino)acetate]"

# Source: patent publication US9346815B2, “5-chloro-2-difluoromethoxyphenyl pyrazolopyrimidine compounds, compositions and methods of use thereof” (Genentech, Inc., priority 2014, dated 2016)
